## Ab-91 heavy chain CDR variants: yeast mating affinities

The measurements come from Engelhart et al. 2022 (doi:10.1038/s41597-022-01779-4) through the FLAb antibody collection.

The target is the same throughout: PDVDLGDISGINAS, from the HR2 region of SARS-CoV-2 spike.

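The starting antibody came from a phage panning campaign against this peptide. AAYL51 was designed without a model: most single CDR substitutions and a random sample of double and triple ones. AlphaSeq pools MATa yeast showing the antibodies with MATalpha yeast showing the peptide. Mating (16 h, 30 °C) was followed by selection of diploids and sequencing of their barcodes. Read counts were normalised to the haploid input and turned into Kd by a linear fit to BCL2-family pairs of known affinity, for each replicate. Mating was done three times.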

Each scFv is VL, the linker GGGGSGGGGSGGGGS, VH, as in the parent Ab-91, and differs from it in the CDRs of the heavy chain only.
VL: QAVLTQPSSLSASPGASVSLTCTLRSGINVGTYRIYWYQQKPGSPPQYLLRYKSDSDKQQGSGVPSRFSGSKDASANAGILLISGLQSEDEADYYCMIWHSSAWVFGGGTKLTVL
VH: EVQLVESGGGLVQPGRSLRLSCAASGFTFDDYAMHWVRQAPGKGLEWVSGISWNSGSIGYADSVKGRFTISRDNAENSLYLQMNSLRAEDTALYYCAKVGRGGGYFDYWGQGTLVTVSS

Changes read parent residue, position, new residue, counted from the first residue of the VH shown.
Numbers give log10(Kd / nM), so 0 is 1 nM and 3 is 1 µM. Smaller is tighter.
A mean of the replicates is given; it leaves out those without a signal.
"nd" means that the variant was in the library but no mating with the target was seen in that replicate; the authors take this as a sign of poor binding, and no number exists.
Parent in this assay: reference entry 1.86, copy in this library 0.88.
Empty control strains, which show no peptide, gave a signal in 21% of pairings with library AAYL51; the median was 4.54 and 95% of these signals were weaker than 3.26. No background was subtracted. Also given: how often the same scFv was detected with the empty control strains, with their mean in brackets.

| # | changes | log10 Kd, replicates | mean, log10 nM | control signals |
|---|---|---|---|---|
| 1 | S55V S63N K65I | 3.36 4.57 3.27 | 3.73 | 2/9 (3.46) |
| 2 | A33V I51P I58G | 4.63 5.84 nd | 5.24 | 0/9 |
| 3 | A33Y A61I G104S | 5.68 5.25 nd | 5.46 | 2/9 (4.44) |
| 4 | Y32I S55R | nd 5.58 nd | 5.58 | 4/9 (4.31) |
| 5 | S52H K65C Y105L | 4.57 4.72 nd | 4.65 | 1/9 (4.58) |
| 6 | D30K S57I I58R | nd nd nd | nd | 1/9 (3.94) |
| 7 | D30K S55L S57C | nd nd nd | nd | 0/9 |
| 8 | V99L F106V Y108D | nd 4.13 nd | 4.13 | 3/9 (3.96) |
| 9 | D31F H35Y | 4.73 6.55 nd | 5.64 | 3/9 (4.17) |
| 10 | A61C G103R | nd nd nd | nd | 0/9 |
| 11 | S52T K65E Y108V | nd nd nd | nd | 0/9 |
| 12 | A33R H35W | 4.94 5.12 5.24 | 5.10 | 7/9 (5.42) |
| 13 | Y32Q R101M D107N | nd nd nd | nd | 0/9 |
| 14 | Y32L H35Y I51F | nd nd nd | nd | 1/9 (4.33) |
| 15 | H35Q G56N S57T | nd nd nd | nd | 0/9 |
| 16 | G26N F27I S52L | nd nd nd | nd | 0/9 |
| 17 | N54Q S57R Y60F | nd nd nd | nd | 0/9 |
| 18 | D31H I58H G103Y | nd nd nd | nd | 1/9 (3.03) |
| 19 | G50S A61K D62N | 3.87 4.42 4.74 | 4.34 | 5/9 (5.26) |
| 20 | T28F I58F G103C | 3.78 nd nd | 3.78 | 0/9 |
| 21 | N54D G103C | nd nd nd | nd | 1/9 (4.14) |
| 22 | H35R S57M G59I | nd nd nd | nd | 1/9 (4.10) |
| 23 | D31M G50R S52R | nd nd nd | nd | 2/9 (4.37) |
| 24 | A61Y F106T Y108F | nd nd nd | nd | 1/9 (4.08) |
| 25 | F29K S52E N54K | nd nd nd | nd | 1/9 (3.88) |
| 26 | G26F A33V M34F | nd nd nd | nd | 0/9 |
| 27 | D31P V99W D107Q | nd nd nd | nd | 0/9 |
| 28 | G26D D30G R101N | nd nd nd | nd | 0/9 |
| 29 | D31N R101D | 2.90 3.23 2.73 | 2.95 | 5/9 (4.53) |
| 30 | G50T Y105V D107G | nd nd nd | nd | 1/9 (3.04) |
| 31 | Y32P I51K N54T | 3.50 nd nd | 3.50 | 1/9 (5.09) |
| 32 | D31H W53R G103I | 4.47 nd 4.66 | 4.56 | 0/9 |
| 33 | N54T V64S F106W | nd 5.07 nd | 5.07 | 2/9 (4.79) |
| 34 | Y60F G100I G103M | nd 4.87 nd | 4.87 | 1/9 (5.49) |
| 35 | G50P G100D D107G | 3.83 nd nd | 3.83 | 0/9 |
| 36 | D62T S63V | 3.39 4.01 4.34 | 3.91 | 4/9 (4.93) |
| 37 | W53F D62R | 2.76 2.03 3.21 | 2.67 | 0/9 |
| 38 | M34R N54H V64S | nd nd nd | nd | 1/9 (3.48) |
| 39 | F29T F106N | 3.64 nd nd | 3.64 | 2/9 (3.94) |
| 40 | Y32M D62L S63N | 4.69 4.80 nd | 4.74 | 2/9 (5.28) |
| 41 | A33I G102L F106R | nd 4.11 nd | 4.11 | 2/9 (4.88) |
| 42 | W53F A61R | 1.35 1.47 0.87 | 1.23 | 2/9 (4.61) |
| 43 | F29V I51W A61I | nd nd nd | nd | 1/9 (3.69) |
| 44 | N54S Y60T Y105L | nd nd nd | nd | 0/9 |
| 45 | D30W V99L G102S | 3.74 nd nd | 3.74 | 5/9 (4.42) |
| 46 | F29L H35C D107F | nd nd nd | nd | 0/9 |

For reference, 4 entries of the list once more:

| changes | log10 Kd, replicates | mean, log10 nM | control signals |
|---|---|---|---|
| T28F I58F G103C | 3.78 nd nd | 3.78 | 0/9 |
| D31M G50R S52R | nd nd nd | nd | 2/9 (4.37) |
| N54T V64S F106W | nd 5.07 nd | 5.07 | 2/9 (4.79) |
| D30K S57I I58R | nd nd nd | nd | 1/9 (3.94) |